Results reported in patent US8802672B2, “Pyrimidinyl-piperazines useful as D3/D2 receptor ligands” (Richter Gedeon Nyrt., priority 2007, dated 2014).

Amino acid sequences for entries named in this document (tags omitted).
UniProt P19020, whole entry: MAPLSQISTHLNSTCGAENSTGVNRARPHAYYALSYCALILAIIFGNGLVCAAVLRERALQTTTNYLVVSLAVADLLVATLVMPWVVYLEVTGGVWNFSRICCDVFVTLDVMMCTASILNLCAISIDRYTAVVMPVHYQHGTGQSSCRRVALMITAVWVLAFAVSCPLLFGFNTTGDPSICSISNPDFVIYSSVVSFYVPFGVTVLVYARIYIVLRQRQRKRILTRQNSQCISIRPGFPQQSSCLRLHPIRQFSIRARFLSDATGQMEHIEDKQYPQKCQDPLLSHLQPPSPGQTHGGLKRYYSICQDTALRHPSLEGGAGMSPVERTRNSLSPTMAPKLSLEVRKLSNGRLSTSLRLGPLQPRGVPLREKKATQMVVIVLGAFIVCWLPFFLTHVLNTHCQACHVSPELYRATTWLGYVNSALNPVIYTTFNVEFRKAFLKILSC

Target: rat recombinant D3 receptors (Rattus norvegicus (Rat), UniProt P19020)
Test: D3 receptor binding

- Sel. = D2/D3 selectivity, Ki for D2 receptor divided by Ki for D3 receptor: 7
Structure (SMILES): CNc1nc(Cl)c(Cl)c(N2CCN(CC[C@H]3CC[C@H](NC(=O)N4CCOCC4)CC3)CC2)n1 [Compound 7, trans-morpholine-4-carboxylic acid (4-{2-[4-(5,6-dichloro-2-methylamino-pyrimidin-4-yl)-piperazin-1-yl]-ethyl}-cyclohexyl)-amide]
